This note sets out measurements from PubChem BioAssay AID1942 (Johns Hopkins Ion Channel Center, 2009).

Chains of the proteins cited; added tags and fusions are not shown.
UniProt O88943, whole entry: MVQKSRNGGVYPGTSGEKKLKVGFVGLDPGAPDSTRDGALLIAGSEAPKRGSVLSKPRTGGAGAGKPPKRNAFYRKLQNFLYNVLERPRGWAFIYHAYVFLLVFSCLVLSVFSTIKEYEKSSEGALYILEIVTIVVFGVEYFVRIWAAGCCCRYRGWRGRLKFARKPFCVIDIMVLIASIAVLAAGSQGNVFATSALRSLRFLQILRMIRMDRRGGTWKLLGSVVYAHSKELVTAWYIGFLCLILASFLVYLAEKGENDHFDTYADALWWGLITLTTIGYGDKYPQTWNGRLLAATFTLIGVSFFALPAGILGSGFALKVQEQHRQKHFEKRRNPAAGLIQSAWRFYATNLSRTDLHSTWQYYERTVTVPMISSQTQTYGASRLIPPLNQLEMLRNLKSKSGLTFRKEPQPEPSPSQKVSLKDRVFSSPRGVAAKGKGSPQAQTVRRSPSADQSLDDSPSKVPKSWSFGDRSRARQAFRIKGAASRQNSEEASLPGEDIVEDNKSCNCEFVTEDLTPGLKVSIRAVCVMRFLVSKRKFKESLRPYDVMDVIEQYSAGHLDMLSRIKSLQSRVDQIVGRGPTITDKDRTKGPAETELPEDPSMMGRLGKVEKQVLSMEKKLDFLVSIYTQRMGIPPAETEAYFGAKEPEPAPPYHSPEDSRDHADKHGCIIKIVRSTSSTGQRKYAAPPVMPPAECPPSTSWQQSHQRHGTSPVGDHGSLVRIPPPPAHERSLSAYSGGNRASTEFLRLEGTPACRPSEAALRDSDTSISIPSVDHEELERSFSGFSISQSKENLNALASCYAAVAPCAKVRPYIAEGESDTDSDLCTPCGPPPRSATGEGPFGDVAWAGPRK

The list shows a part of the results, in another mix than the full data. Active and inactive are the calls of the source.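 Rule for the calls: active = activity change at or above the mean plus 3 SD of buffer wells without dofetilide, per plate; inactive = the rest.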

The assay concerns the target Potassium voltage-gated channel subfamily KQT member 2 (Rattus norvegicus) (UniProt O88943). The experiment in a line: rat KCNQ2 channel activation by compounds alone, confirmation, counter-screen for hERG block protector project, cell-based, CHO, FluxOR thallium flux (AID 1942).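 Note: normalized value minus buffer-control mean plus three SD of buffer wells.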 The conditions noted are these: CHO-KCNQ2 cells, FluxOR thallium flux fluorescence; at 10 µM; stronger effect = higher value. In general terms: A counterscreen serves to expose hits that act by an unwanted route or on another target.
For the compound `CCOC(=O)N1CCC(Nc2ccc(OC)cc2)CC1`, the activity change, less the hit threshold is inactive: -6.8%.
